CycPeptMPDB entries from one study

Source: CycPeptMPDB (Li et al. 2023), which took these values from Townsend et al. 2020, doi:10.26434/chemrxiv.13335941.v1.

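The data file gives no further conditions (lipid, pH, time, direction or concentration), and values from different papers need not be comparable. The list need not hold all peptides of the study. Peptides that the database sets to -10, its floor, are left out.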

PAMPA measures passive passage through an artificial lipid membrane.
Values are log10 P with P in cm/s, so -5 is more permeable than -7.

SMILES,PAMPA (log10 cm/s)
CCCN1CC(=O)N(C)[C@H](CC(C)C)C(=O)N[C@@H](Cc2ccccc2)CC(=O)N2CCC[C@@H]2C(=O)N(C)[C@@H](CC(C)C)C(=O)N[C@@H](Cc2ccccc2)C(=O)N2CCC[C@@H]2C1=O,-5.17
CC(C)C[C@@H]1C(=O)N[C@@H](Cc2ccccc2)C(=O)N2CCC[C@@H]2C(=O)N[C@@H](C)C(=O)N(C)[C@@H](CC(C)C)C(=O)N(Cc2ccccc2)CC(=O)N2CCC[C@H]2C(=O)N1C,-6.03
CC(C)C[C@@H]1NC(=O)[C@@H]2CCCN2C(=O)[C@H](CC(C)C)NC(=O)[C@@H](CC(C)C)NC(=O)[C@H](C)NC(=O)[C@H](Cc2ccccc2)NC1=O,-6.49
CC(C)C[C@@H]1NC(=O)C[C@H](Cc2ccccc2)NC(=O)[C@@H]2CCCN2C(=O)[C@H](Cc2ccccc2)NC(=O)[C@H](CC(C)C)N(C)C(=O)[C@H]2CCCN2C(=O)[C@H](CC(C)C)NC1=O,-5.33
CC(C)C[C@@H]1C(=O)N2CCC[C@H]2C(=O)N(C)[C@H](CC(C)C)C(=O)N[C@@H](Cc2ccccc2)C(=O)N[C@@H](C)C(=O)N(Cc2ccccc2)CC(=O)N1C,-5.59
CCCN1CC(=O)N(C)[C@H](CC(C)C)C(=O)N(C)[C@H](CC(C)C)C(=O)N2CCC[C@@H]2C(=O)N(C)[C@@H](CC(C)C)C(=O)N[C@@H](Cc2ccccc2)C(=O)N2CCC[C@H]2C1=O,-5.13
CC(C)C[C@@H]1C(=O)N[C@@H](Cc2ccccc2)C(=O)N2CCC[C@H]2C(=O)N(C)[C@@H](C)C(=O)N(C)[C@@H](CC(C)C)C(=O)N[C@H](CC(C)C)C(=O)N2CCC[C@@H]2C(=O)N1C,-5.81
CCCN1CC(=O)N[C@H](CC(C)C)C(=O)N[C@H](CC(C)C)C(=O)N2CCC[C@@H]2C(=O)N(C)[C@@H](CC(C)C)C(=O)N[C@@H](Cc2ccccc2)C1=O,-5.47
CCCN1CC(=O)N(C)[C@H](CC(C)C)C(=O)N(C)[C@@H](CC(C)C)C(=O)N2CCC[C@@H]2C(=O)N(C)[C@H](CC(C)C)C(=O)N[C@@H](Cc2ccccc2)C(=O)N2CCC[C@@H]2C1=O,-4.91
CC(C)C[C@@H]1NC(=O)[C@@H]2CCCN2C(=O)[C@@H](CC(C)C)N(C)C(=O)[C@H](CC(C)C)NC(=O)[C@@H](C)N(C)C(=O)[C@H](Cc2ccccc2)NC1=O,-5.02
CC(C)C[C@@H]1C(=O)N[C@@H](Cc2ccccc2)C(=O)N2CCC[C@H]2C(=O)N[C@@H](Cc2ccccc2)CC(=O)N(C)[C@@H](CC(C)C)C(=O)N(Cc2ccccc2)CC(=O)N2CCC[C@@H]2C(=O)N1C,-5.65
CC(C)C[C@H]1NC(=O)[C@H](CC(C)C)N(C)C(=O)[C@@H](C)N(C)C(=O)[C@H](Cc2ccccc2)NC(=O)CN(Cc2ccccc2)C(=O)[C@@H]2CCCN2C1=O,-5.26
CC(C)C[C@@H]1NC(=O)C[C@H](Cc2ccccc2)NC(=O)[C@@H]2CCCN2C(=O)[C@H](Cc2ccccc2)NC(=O)[C@@H](CC(C)C)NC(=O)[C@@H]2CCCN2C(=O)C[C@H](Cc2ccccc2)NC1=O,-5.90
CC(C)C[C@H]1NC(=O)CN(Cc2ccccc2)C(=O)[C@H](C)N(C)C(=O)[C@H]2CCCN2C(=O)[C@H](Cc2ccccc2)NC(=O)CN(Cc2ccccc2)C(=O)[C@@H]2CCCN2C1=O,-6.01
CC(C)C[C@H]1NC(=O)[C@@H](C)N(C)C(=O)[C@H]2CCCN2C(=O)[C@H](Cc2ccccc2)NC(=O)[C@H](CC(C)C)N(C)C(=O)[C@@H]2CCCN2C(=O)C[C@H](Cc2ccccc2)NC1=O,-5.92
CC(C)C[C@@H]1NC(=O)C[C@H](Cc2ccccc2)NC(=O)[C@@H]2CCCN2C(=O)[C@H](Cc2ccccc2)NC(=O)[C@@H](CC(C)C)N(C)C(=O)[C@@H]2CCCN2C(=O)[C@H](CC(C)C)NC1=O,-5.65
CCCN1CC(=O)N(Cc2ccccc2)CC(=O)N(C)[C@@H](CC(C)C)C(=O)N2CCC[C@@H]2C(=O)N(C)[C@@H](CC(C)C)C(=O)N[C@@H](Cc2ccccc2)C(=O)N2CCC[C@H]2C1=O,-5.25
CC(C)C[C@@H]1C(=O)N2CCC[C@@H]2C(=O)N[C@H](CC(C)C)C(=O)N[C@@H](Cc2ccccc2)C(=O)N2CCC[C@H]2C(=O)N(C)[C@@H](C)C(=O)N[C@H](CC(C)C)C(=O)N1C,-5.70
CC(C)C[C@@H]1NC(=O)[C@H]2CCCN2C(=O)CN(Cc2ccccc2)C(=O)[C@H](CC(C)C)NC(=O)[C@@H](C)NC(=O)[C@H](Cc2ccccc2)NC1=O,-5.82
CC(C)C[C@@H]1NC(=O)[C@@H](CC(C)C)N(C)C(=O)[C@H](C)NC(=O)[C@@H]2CCCN2C(=O)[C@H](Cc2ccccc2)NC(=O)[C@@H](CC(C)C)N(C)C(=O)[C@@H]2CCCN2C1=O,-5.63
CC(C)C[C@@H]1C(=O)N2CCC[C@H]2C(=O)N(C)[C@@H](CC(C)C)C(=O)N[C@@H](Cc2ccccc2)C(=O)N2CCC[C@@H]2C(=O)N[C@@H](C)C(=O)N[C@H](CC(C)C)C(=O)N1C,-5.66
CC(C)C[C@@H]1C(=O)N[C@@H](Cc2ccccc2)C(=O)N2CCC[C@H]2C(=O)N(C)[C@H](C)C(=O)N[C@H](CC(C)C)C(=O)N[C@H](CC(C)C)C(=O)N2CCC[C@H]2C(=O)N1C,-5.67
CC(C)C[C@@H]1NC(=O)[C@@H](CC(C)C)N(C)C(=O)[C@H](C)NC(=O)[C@H](Cc2ccccc2)NC(=O)CN(Cc2ccccc2)C(=O)[C@@H]2CCCN2C1=O,-5.48
CC(C)C[C@@H]1NC(=O)[C@H]2CCCN2C(=O)CN(Cc2ccccc2)C(=O)[C@H](CC(C)C)N(C)C(=O)[C@@H](C)N(C)C(=O)[C@@H]2CCCN2C(=O)[C@H](Cc2ccccc2)NC1=O,-6.53

Extract of 3 entries:

{"smiles": "CCCN1CC(=O)N(C)[C@H](CC(C)C)C(=O)N(C)[C@@H](CC(C)C)C(=O)N2CCC[C@@H]2C(=O)N(C)[C@H](CC(C)C)C(=O)N[C@@H](Cc2ccccc2)C(=O)N2CCC[C@@H]2C1=O", "PAMPA (log10 cm/s)": "-4.91"}
{"smiles": "CC(C)C[C@@H]1C(=O)N[C@@H](Cc2ccccc2)C(=O)N2CCC[C@H]2C(=O)N(C)[C@H](C)C(=O)N[C@H](CC(C)C)C(=O)N[C@H](CC(C)C)C(=O)N2CCC[C@H]2C(=O)N1C", "PAMPA (log10 cm/s)": "-5.67"}
{"smiles": "CCCN1CC(=O)N(C)[C@H](CC(C)C)C(=O)N(C)[C@H](CC(C)C)C(=O)N2CCC[C@@H]2C(=O)N(C)[C@@H](CC(C)C)C(=O)N[C@@H](Cc2ccccc2)C(=O)N2CCC[C@H]2C1=O", "PAMPA (log10 cm/s)": "-5.13"}